Protein sequences, listed by entry. Tags and fused reporters are not part of them. Residues count along the entry.
UniProt Q5S007, 970-2527 G2019S: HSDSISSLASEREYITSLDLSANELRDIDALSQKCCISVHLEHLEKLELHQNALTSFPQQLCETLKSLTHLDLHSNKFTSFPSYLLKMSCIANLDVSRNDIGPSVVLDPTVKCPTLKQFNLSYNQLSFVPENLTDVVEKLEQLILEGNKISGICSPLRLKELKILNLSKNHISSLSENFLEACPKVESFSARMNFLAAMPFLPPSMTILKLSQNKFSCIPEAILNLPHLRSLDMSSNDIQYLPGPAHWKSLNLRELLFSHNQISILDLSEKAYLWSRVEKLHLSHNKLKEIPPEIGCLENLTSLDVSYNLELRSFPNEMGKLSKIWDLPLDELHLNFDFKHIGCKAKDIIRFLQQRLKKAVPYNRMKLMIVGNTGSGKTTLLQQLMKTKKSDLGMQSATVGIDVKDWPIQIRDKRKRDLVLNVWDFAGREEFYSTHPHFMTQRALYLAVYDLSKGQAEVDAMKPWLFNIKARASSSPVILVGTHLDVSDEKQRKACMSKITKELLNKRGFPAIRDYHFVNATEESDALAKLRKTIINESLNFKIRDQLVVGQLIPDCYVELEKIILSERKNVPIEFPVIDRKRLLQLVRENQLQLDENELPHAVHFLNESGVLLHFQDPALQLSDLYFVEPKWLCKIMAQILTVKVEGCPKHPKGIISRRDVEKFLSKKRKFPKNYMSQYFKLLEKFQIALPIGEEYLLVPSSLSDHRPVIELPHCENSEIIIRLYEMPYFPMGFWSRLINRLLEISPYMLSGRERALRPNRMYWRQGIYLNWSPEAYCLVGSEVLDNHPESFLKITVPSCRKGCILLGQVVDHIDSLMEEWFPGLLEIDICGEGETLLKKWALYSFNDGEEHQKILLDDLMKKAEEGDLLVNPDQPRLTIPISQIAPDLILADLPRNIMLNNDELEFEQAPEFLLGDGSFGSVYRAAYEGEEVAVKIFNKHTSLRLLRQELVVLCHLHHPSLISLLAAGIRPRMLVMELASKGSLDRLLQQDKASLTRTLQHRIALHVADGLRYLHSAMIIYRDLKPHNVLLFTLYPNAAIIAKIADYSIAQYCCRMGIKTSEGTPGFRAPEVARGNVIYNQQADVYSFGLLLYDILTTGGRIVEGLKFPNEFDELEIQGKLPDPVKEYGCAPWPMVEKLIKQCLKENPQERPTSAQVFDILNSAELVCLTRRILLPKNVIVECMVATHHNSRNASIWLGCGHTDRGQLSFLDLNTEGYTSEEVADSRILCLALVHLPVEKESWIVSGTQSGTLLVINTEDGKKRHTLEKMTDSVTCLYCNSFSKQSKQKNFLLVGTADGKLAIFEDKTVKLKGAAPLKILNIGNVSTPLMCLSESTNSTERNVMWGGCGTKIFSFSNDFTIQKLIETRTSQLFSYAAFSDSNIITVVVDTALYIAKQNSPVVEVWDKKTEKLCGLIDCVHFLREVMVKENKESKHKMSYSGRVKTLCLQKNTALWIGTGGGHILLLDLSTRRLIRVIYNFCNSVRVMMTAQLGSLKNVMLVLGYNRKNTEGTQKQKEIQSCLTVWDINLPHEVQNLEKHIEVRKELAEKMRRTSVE

According to patent publication US12030872B2, “N-heteroaryl indazole derivatives as LRRK2 inhibitors, pharmaceutical compositions, and uses thereof” (Merck Sharp & Dohme LLC, priority 2018, dated 2024):

Molecular target: GST-tagged truncated human mutant G2019S LRRK2 (Homo sapiens (Human), UniProt Q5S007, G2019S)
Assay: LRRK2 G2019S Km ATP LanthaScreen Assay
Conditions: LRRK2 IC50, G2019S LRRK2, 134 μM ATP (Km ATP), LRRKtide substrate; mean IC50 values

Q: `CC1(N2CCC(c3cc4c(cnn4-c4cnn(C5CC5)c4)cc3C#N)CC2)COC1` [Example 12.3, 1-(1-cyclopropyl-1H-pyrazol-4-yl)-6-(1-(3-methyloxetan-3-yl)piperidin-4-yl)-1H-indazole-5-carbonitrile] was tested. Which IC50 did it give?
A: < 0.625 nM

Q: `Cn1cc(-n2ncc3cc(Cl)c(C4CCN(C5CCOC5)CC4)cc32)cn1` (single isomer, unassigned) [Example 14.2-2, (R or S)-5-chloro-1-(1-methyl-1H-pyrazol-4-yl)-6-(1-(tetrahydrofuran-3-yl)piperidin-4-yl)-1H-indazole] was tested. Which IC50 did it give?
A: 2.8 nM

Q: `C[C@H]1C[C@H](c2cc3c(cnn3-c3cnn(C)c3)cc2Cl)CCN1C1(C)COC1` [Example 23.5, 5-chloro-6-((2S,4R)-2-methyl-1-(3-methyloxetan-3-yl)piperidin-4-yl)-1-(1-methyl-1H-pyrazol-4-yl)-1H-indazole] was tested. Which IC50 did it give?
A: 1.2 nM

Q: For `Cn1cc(-n2ncc3cc(Cl)c(C4CCN(C5COC5)C4)cc32)cn1` (single isomer, unassigned) [Example 30.5-1, (R or S)-5-chloro-1-(1-methyl-1H-pyrazol-4-yl)-6-(1-(oxetan-3-yl)pyrrolidin-3-yl)-1H-indazole], which IC50 is on record?
A: 190 nM

Q: For `Cn1cc(-n2ncc3cc(C#N)c(C4CCN(C5(C)COC5)CC4)cc32)cn1` [Example 12.1, 1-(1-methyl-1H-pyrazol-4-yl)-6-(1-(3-methyloxetan-3-yl)piperidin-4-yl)-1H-indazole-5-carbonitrile], which IC50 is on record?
A: 6.3 nM

Q: How did the IC50 turn out when `CC1(N2CCC(c3cc4c(cnn4-c4cnn(S(=O)(=O)C5CC5)c4)cc3Cl)CC2)COC1` [Example 9.1, 5-chloro-1-(1-(cyclopropylsulfonyl)-1H-pyrazol-4-yl)-6-(1-(3-methyloxetan-3-yl)piperidin-4-yl)-1H-indazole] was run?
A: 2.7 nM

Q: Which IC50 does the source give for `O=S1(=O)CC(N2CCC(c3cc4c(cnn4-c4cnn(C56CC(C5)C6)c4)cc3Cl)CC2)C1` [Example 37.1, 3-(4-(1-(1-(bicyclo[1.1.1]pentan-1-yl)-1H-pyrazol-4-yl)-5-chloro-1H-indazol-6-yl)piperidin-1-yl)thietane 1,1-dioxide] here?
A: < 0.625 nM

Q: How did the IC50 turn out when `Cn1cc(-n2ncc3cc(Cl)c(C4CCCN(C5COC5)CC4)cc32)cn1` (single isomer, unassigned) [Example 29.3-2, (R or S)-5-chloro-1-(1-methyl-1H-pyrazol-4-yl)-6-(1-(oxetan-3-yl)azepan-4-yl)-1H-indazole] was run?
A: 1.7 nM

Q: Which IC50 does the source give for `Clc1cc2cnn(-c3cnn(-c4ncccn4)c3)c2cc1C1CCN(C2COC2)CC1` [Example 4.2, 5-chloro-6-(1-(oxetan-3-yl)piperidin-4-yl)-1-(1-(pyrimidin-2-yl)-1H-pyrazol-4-yl)-1H-indazole] here?
A: < 0.625 nM

Q: How did the IC50 turn out when `Cn1cc(-n2ncc3cc(Cl)c(C4CC5(C4)CN(C4COC4)C5)cc32)cn1` [Example 28.4, 5-chloro-1-(1-methyl-1H-pyrazol-4-yl)-6-(2-(oxetan-3-yl)-2-azaspiro[3.3]heptan-6-yl)-1H-indazole] was run?
A: 187 nM

Q: For `Cn1cc(-n2ncc3c(F)c(Cl)c(C4CCN(C5COC5)CC4)cc32)cn1` [Example 35.9, 5-chloro-4-fluoro-1-(1-methyl-1H-pyrazol-4-yl)-6-(1-(oxetan-3-yl)piperidin-4-yl)-1H-indazole], which IC50 is on record?
A: 6.9 nM

Q: `Cn1cc(-n2ncc3cc(Cl)c(C4CN(C5COC5)C4)cc32)cn1` [Example 31.3, 5-chloro-1-(1-methyl-1H-pyrazol-4-yl)-6-(1-(oxetan-3-yl)azetidin-3-yl)-1H-indazole] was tested. Which IC50 did it give?
A: 2360 nM

Q: With `CCNC(=O)n1cc(-n2ncc3cc(Cl)c(C4CCN(C5(C)COC5)CC4)cc32)cn1` [Example 8.2, 4-(5-chloro-6-(1-(3-methyloxetan-3-yl)piperidin-4-yl)-1H-indazol-1-yl)-N-ethyl-1H-pyrazole-1-carboxamide] as the compound, how does the IC50 read?
A: 4.6 nM

Q: How did the IC50 turn out when `CNC(=O)n1cc(-n2ncc3cc(Cl)c(C4CCN(C5(C)COC5)CC4)cc32)cn1` [Example 8.1, 4-(5-chloro-6-(1-(3-methyloxetan-3-yl)piperidin-4-yl)-1H-indazol-1-yl)-N-methyl-1H-pyrazole-1-carboxamide] was run?
A: 2.9 nM

Q: `CC1(N2CCC(c3cc4c(cnn4-c4cnn(-c5ncccn5)c4)cc3Cl)CC2)COC1` [Example 10.1, 5-chloro-6-(1-(3-methyloxetan-3-yl)piperidin-4-yl)-1-(1-(pyrimidin-2-yl)-1H-pyrazol-4-yl)-1H-indazole] was tested. Which IC50 did it give?
A: < 0.625 nM

Q: Which IC50 does the source give for `Cn1cc(-n2ncc3cc(Cl)c(C4CCCN(C5COC5)CC4)cc32)cn1` (single isomer, unassigned) [Example 29.3-1, (R or S)-5-chloro-1-(1-methyl-1H-pyrazol-4-yl)-6-(1-(oxetan-3-yl)azepan-4-yl)-1H-indazole] here?
A: 0.7 nM

Q: Which IC50 does the source give for `Cn1cc(-n2ncc3cc(Cl)c(C4CCN(C5COC5)C4)cc32)cn1` (single isomer, unassigned) [Example 30.5-2, (R or S)-5-chloro-1-(1-methyl-1H-pyrazol-4-yl)-6-(1-(oxetan-3-yl)pyrrolidin-3-yl)-1H-indazole] here?
A: 202 nM

Q: With `Clc1cc2cnn(-c3cnn(C4CC4)n3)c2cc1C1CCN(C2COC2)CC1` [Example 3.3, 5-chloro-1-(2-cyclopropyl-2H-1,2,3-triazol-4-yl)-6-(1-(oxetan-3-yl)piperidin-4-yl)-1H-indazole] as the compound, how does the IC50 read?
A: 9.1 nM

Same assay, conditions: read-out: LRRK2 IC50; G2019S LRRK2, 134 μM ATP (Km ATP), LRRKtide substrate; mean IC50 values

Q: `Cn1cc(-n2ncc3cc(Cl)c(C4CCN(S(C)(=O)=O)CC4)cc32)cn1` [Example 17.2] was tested. Which IC50 did it give?
A: 27.8 nM

Q: How did the IC50 turn out when `Cn1cc(-n2ncc3cc(Cl)c(C4CCN(CC(F)(F)F)CC4)cc32)cn1` [Example 18.3] was run?
A: 324 nM

Q: With `Cn1cc(-n2ncc3cc(Cl)c(C4C5COCC54)cc32)cn1` (stereo not drawn) [Example 32.1, (cis or trans)-6-(3-oxabicyclo[3.1.0]hexan-6-yl)-5-chloro-1-(1-methyl-1H-pyrazol-4-yl)-1H-indazole] as the compound, how does the IC50 read?
A: 69.2 nM

Q: `Clc1cc2cnn(-c3cnn(C4CCC4)c3)c2cc1C1CCN(C2COC2)CC1` [Example 2.8] was tested. Which IC50 did it give?
A: 0.9 nM

Q: Which IC50 does the source give for `C[C@H]1CN(C2(C)COC2)CCC1c1cc2c(cnn2-c2cnn(C)c2)cc1Cl` (single isomer, unassigned) [Example 27.5-1, (R,S or S,R)-5-chloro-6-(3-methyl-1-(3-methyloxetan-3-yl)piperidin-4-yl)-1-(1-methyl-1H-pyrazol-4-yl)-1H-indazole] here?
A: 10.1 nM

Q: For `CC1(N2CCC(c3cc4c(cnn4-c4cnn(C5CC5)c4)cc3Cl)CC2)COC[C@H]1O` (single isomer, unassigned) [Example 41.6, (R,R or S,S)-4-(4-(5-chloro-1-(1-cyclopropyl-1H-pyrazol-4-yl)-1H-indazol-6-yl)piperidin-1-yl)-4-methyltetrahydrofuran-3-ol], which IC50 is on record?
A: < 0.625 nM

Q: How did the IC50 turn out when `CC(C)n1cc(-n2ncc3cc(Cl)c(C4CCN(C5(C)COC5)CC4)cc32)cn1` [Example 11.4] was run?
A: 0.9 nM

Q: How did the IC50 turn out when `Cn1cc(-n2ncc3cc(Cl)c(C4CCN(C5(C)CCOC5)CC4)cc32)cn1` (single isomer, unassigned) [Example 15.4-2] was run?
A: 3.5 nM

Q: `C[C@@]1(N2CCC(c3cc4c(cnn4-c4cnn(C56CC(C5)C6)c4)cc3Cl)CC2)COC[C@@H]1O` (single isomer, unassigned) [Example 40.4-1, (R,R or S,S)-4-(4-(1-(1-(bicyclo[1.1.1]pentan-1-yl)-1H-pyrazol-4-yl)-5-chloro-1H-indazol-6-yl)piperidin-1-yl)-4-methyltetrahydrofuran-3-ol] was tested. Which IC50 did it give?
A: < 0.625 nM

Q: How did the IC50 turn out when `CC1(N2CCC(c3cc4c(cnn4-c4cnn(CC(F)(F)F)c4)cc3Cl)CC2)COC1` [Example 11.3] was run?
A: 1.3 nM

Q: `CC1(N2CCC(c3cc4c(cnn4-c4cnn(CCF)c4)cc3Cl)CC2)COC1` [Example 11.2] was tested. Which IC50 did it give?
A: 0.9 nM

Q: With `Cc1cc(-n2ncc3cc(Cl)c([C@@H]4CCN(C)C[C@H]4F)cc32)sn1` [Example 19.8-2] as the compound, how does the IC50 read?
A: 5.9 nM

Q: `Cc1cnc(-n2ncc3cc(Cl)c(C4CCN(C5COC5)CC4)cc32)s1` [Example 2.9] was tested. Which IC50 did it give?
A: 15.7 nM

Q: With `Cc1cc(-n2ncc3ccc(C4(C#N)CC45CC5)cc32)sn1` (centres unmarked) [Example 1.7] as the compound, how does the IC50 read?
A: 12.2 nM

Q: For `O[C@H]1COCC1N1CCC(c2cc3c(cnn3-c3cnn(C45CC(C4)C5)c3)cc2Cl)CC1` (single isomer, unassigned) [Example 42.3, (R,R or S,S)-4-(4-(1-(1-(bicyclo[1.1.1]pentan-1-yl)-1H-pyrazol-4-yl)-5-chloro-1H-indazol-6-yl)piperidin-1-yl)tetrahydrofuran-3-ol], which IC50 is on record?
A: < 0.625 nM

Q: How did the IC50 turn out when `C[C@@H]1CN(C2COC2)CCC1c1ccc2cnn(-c3cnn(C)c3)c2c1` (single isomer, unassigned) [Example 26.7-2, (R,R or S,S)-6-(3-methyl-1-(oxetan-3-yl)piperidin-4-yl)-1-(1-methyl-1H-pyrazol-4-yl)-1H-indazole] was run?
A: 36.2 nM

Q: With `FC(F)(F)n1cc(-n2ncc3cc(Cl)c(C4CCN(C5COC5)CC4)cc32)cn1` [Example 2.5] as the compound, how does the IC50 read?
A: 10.4 nM

Q: How did the IC50 turn out when `Clc1cc2cnn(-c3cnn(C4COC4)c3)c2cc1C1CCN(C2COC2)CC1` [Example 2.3] was run?
A: 5.2 nM

Q: Which IC50 does the source give for `Cc1cnc(-n2ncc3cc(Cl)c(C4CCN(C5(C)COC5)CC4)cc32)o1` [Example 7.6] here?
A: 5.7 nM

Q: Which IC50 does the source give for `N#CC1(c2ccc3cnn(-c4cnn(C5COC5)c4)c3c2)CC12CC2` (centres unmarked) [Example 1.3] here?
A: 80.1 nM

Q: With `CC1(N2CCC(c3cc4c(cnn4-c4cnn(C5(C)CC5)c4)cc3Cl)CC2)COC1` [Example 7.7] as the compound, how does the IC50 read?
A: 11.4 nM

Q: `O=C1CCCN1c1nc(-n2ncc3cc(Cl)c(C4CCN(C5COC5)CC4)cc32)cs1` [Example 2.10] was tested. Which IC50 did it give?
A: 2.6 nM

Q: Which IC50 does the source give for `O=S1(=O)CC(N2CCC(c3cc4c(cnn4-c4cnn(C56CC(C5)C6)c4)cc3Cl)C(F)C2)C1` (single isomer, unassigned) [Example 39.3, (R,R or S,S)-3-(4-(1-(1-(bicyclo[1.1.1]pentan-1-yl)-1H-pyrazol-4-yl)-5-chloro-1H-indazol-6-yl)-3-fluoropiperidin-1-yl)thietane 1,1-dioxide] here?
A: < 0.625 nM

Q: Which IC50 does the source give for `Cc1cnc(-n2ncc3ccc(C4(C#N)CC45CC5)cc32)o1` (centres unmarked) [Example 1.6] here?
A: 57.6 nM

Q: With `Cn1cc(-n2ncc3cc(Cl)c(C4CCN(CCO)CC4)cc32)cn1` [Example 16.3] as the compound, how does the IC50 read?
A: 3.7 nM

Q: For `COC(=O)n1cc(-n2ncc3cc(Cl)c(C4CCN(C5COC5)CC4)cc32)cn1` [Example 5.2], which IC50 is on record?
A: 1.4 nM
